Experimental data: patent publication US11110149B2, “Method for predicting and monitoring the efficacy of low-dose IL-2 and hydroxychloroquine therapy in autoimmune diseases and its long-term use in autoimmune-related conditions” (KSL BIOMEDICAL INC., priority 2019, dated 2021)

System: patients with active SLE
Conditions: HCZ 200 mg to 400 mg per day

Question: With `CCN(CCO)CCCC(C)Nc1ccnc2cc(Cl)ccc12` (stereo not shown) [hydroxychloroquine] as the molecule, how does the “Side effects during the HCZ protocol” value read?
Answer: No obvious side effects
